From patent US8476043B2

By UniProt entry, the sequences of proteins in these tests, tags left out.
UniProt P34914, whole entry: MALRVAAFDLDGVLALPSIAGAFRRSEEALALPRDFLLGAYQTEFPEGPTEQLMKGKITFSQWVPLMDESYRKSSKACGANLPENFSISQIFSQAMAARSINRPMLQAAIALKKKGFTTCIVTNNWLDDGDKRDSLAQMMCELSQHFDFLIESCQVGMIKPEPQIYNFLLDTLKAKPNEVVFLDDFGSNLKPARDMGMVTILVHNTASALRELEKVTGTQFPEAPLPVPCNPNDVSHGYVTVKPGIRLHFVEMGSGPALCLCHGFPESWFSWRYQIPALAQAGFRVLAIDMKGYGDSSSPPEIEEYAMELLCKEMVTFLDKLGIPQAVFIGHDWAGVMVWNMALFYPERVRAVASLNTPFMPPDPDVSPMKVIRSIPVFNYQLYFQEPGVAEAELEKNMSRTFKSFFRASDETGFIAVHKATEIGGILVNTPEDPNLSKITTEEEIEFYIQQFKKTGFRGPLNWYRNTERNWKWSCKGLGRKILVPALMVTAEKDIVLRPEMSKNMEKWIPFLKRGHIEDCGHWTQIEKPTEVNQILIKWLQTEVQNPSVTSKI

Molecular target: mouse sEH (Mus musculus, UniProt P34914)
Assay: sEH inhibition, spectrometric assay with racemic 4-nitrophenyl-trans-2,3-epoxy-3-phenylpropyl carbonate as substrate
Format: biochemical
Conditions: Table 12, amino acid derivatives of 632-Tyr, unpurified reaction solutions

O=C(CCCNC(=O)NC1CCCCC1)NC(Cc1ccc(O)cc1)C(=O)O (centres unmarked) [Compound 625-Tyr, 2-[4-(3-Cyclohexyl-ureido)-butyrylamino]-3-(4-hydroxy-phenyl)-propionic acid]
IC50 (read-out: Mouse sEH IC50): 500 nM | IC90 (read-out: Mouse sEH IC90): 30 µM
